The source made the active and inactive calls. No rule for the calls is given here.
Target: Mu-type opioid receptor (Homo sapiens, UniProt P35372)
Format: functional, cell-based
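Also: U2OS cells with beta-arrestin recruitment to OPRM1 by beta-gal complementation.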

Sequences of proteins named here, by UniProt entry; tags and fusion partners are left off.
UniProt P35372, whole entry: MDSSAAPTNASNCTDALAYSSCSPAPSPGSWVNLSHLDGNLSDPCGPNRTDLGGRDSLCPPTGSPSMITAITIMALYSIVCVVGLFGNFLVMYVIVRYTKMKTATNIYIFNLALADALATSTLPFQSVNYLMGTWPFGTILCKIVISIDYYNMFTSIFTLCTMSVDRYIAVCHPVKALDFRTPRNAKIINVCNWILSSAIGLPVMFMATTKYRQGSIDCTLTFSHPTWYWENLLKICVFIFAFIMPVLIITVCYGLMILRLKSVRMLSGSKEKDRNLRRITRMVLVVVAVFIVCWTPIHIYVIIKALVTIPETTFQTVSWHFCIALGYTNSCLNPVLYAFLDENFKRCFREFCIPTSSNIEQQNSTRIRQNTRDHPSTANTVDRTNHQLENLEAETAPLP

SMILES: CN1C[C@H](C(=O)N[C@]2(C)O[C@@]3(O)[C@@H]4CCCN4C(=O)[C@H](Cc4ccccc4)N3C2=O)CC2c3cccc4[nH]cc(c34)C[C@H]21 (stereo partly specified)
- EC50: inactive: 92.5 µM

Reference: ChEMBL document CHEMBL1201862, “PubChem BioAssay data set” (2004)
